{"source": "paper PMC11272584", "about": "(Nature Metabolism, 2024)", "key": {"GIPR S415I": {"target": "T1, GIPR S415I (Homo sapiens, UniProt P48546, S415I)", "T1 sequence (P48546 22-466 S415I)": "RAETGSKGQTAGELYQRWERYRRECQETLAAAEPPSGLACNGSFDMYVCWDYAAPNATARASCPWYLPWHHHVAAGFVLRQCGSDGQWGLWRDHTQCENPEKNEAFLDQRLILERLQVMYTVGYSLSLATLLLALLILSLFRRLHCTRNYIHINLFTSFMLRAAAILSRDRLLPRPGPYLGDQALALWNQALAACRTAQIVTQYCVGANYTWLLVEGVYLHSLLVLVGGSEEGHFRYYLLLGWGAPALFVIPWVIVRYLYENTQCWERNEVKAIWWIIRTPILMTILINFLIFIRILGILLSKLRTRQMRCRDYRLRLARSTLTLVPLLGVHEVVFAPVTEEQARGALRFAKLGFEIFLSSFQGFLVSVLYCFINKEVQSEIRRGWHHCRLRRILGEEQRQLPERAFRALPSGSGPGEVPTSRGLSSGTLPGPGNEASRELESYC", "assay": "cAMP accumulation", "assay_type": "cell-based", "set-up": "host or cells: HEK293"}, "WT GIPR": {"target": "WT GIPR (Homo sapiens, UniProt P48546)", "details": "for logEC50 (cAMP): mean of n = 3"}, "GIPR E418K": {"target": "T2, GIPR E418K (Homo sapiens, UniProt P48546, E418K)", "T2 sequence (P48546 22-466 E418K)": "T1 sequence (P48546 22-466 S415I) with I394S, E397K", "assay": "cAMP accumulation", "assay_type": "cell-based", "set-up": "host or cells: HEK293"}, "GIPR K397N": {"target": "T3, GIPR K397N (Homo sapiens, UniProt P48546, K397N)", "T3 sequence (P48546 22-466 K397N)": "T1 sequence (P48546 22-466 S415I) with K376N, I394S", "details": "GIPR K397N (ICD), mean, n = 3, duplicate"}, "GIPR R190Q [1]": {"target": "T4, GIPR R190Q (Homo sapiens, UniProt P48546, R190Q)", "T4 sequence (P48546 22-466 R190Q)": "T1 sequence (P48546 22-466 S415I) with R169Q, I394S", "details": "HEK293A, 1 µM GIP minus vehicle, n = 4, P = 0.4579"}, "GIPR E288G": {"target": "T5, GIPR E288G (Homo sapiens, UniProt P48546, E288G)", "T5 sequence (P48546 22-466 E288G)": "T1 sequence (P48546 22-466 S415I) with E267G, I394S", "assay": "cAMP accumulation", "assay_type": "cell-based", "set-up": "host or cells: HEK293"}, "GIPR R190Q [2]": {"target": "T4, GIPR R190Q", "details": "GIPR R190Q (2.67), mean, n = 6, duplicate"}, "[3]": {"details": "HEK293, GIP(1–42) 1 pM–100 nM, 30 min 37 °C, mean of n = 6"}, "[4]": {"details": "HEK293, Hill slope 1.0, mean of n = 6"}}, "note": "Changes are numbered by the printed parent chain. Like-named read-outs stand apart in the source and are kept apart here."}
{"substance": "glucose-dependent insulinotropic polypeptide [GIP]", "values": [{"measurement": "cAMP (Emax)", "setting": "GIPR S415I; [3]", "result": "71 % of WT GIPR activity"}, {"measurement": "logEC50 (cAMP)", "setting": "GIPR S415I; [4]", "result": -11.2}, {"measurement": "logEC50 (cAMP)", "setting": "WT GIPR; 10 ng receptor DNA", "result": -8.9}, {"measurement": "Potency of GIP (cAMP) with decreasing GIPR levels", "setting": "WT GIPR; 10 ng to 10 µg receptor DNA", "result": "right shift towards lower potency"}, {"measurement": "logEC50 (cAMP)", "setting": "WT GIPR; 50ng receptor DNA", "result": -9.9}, {"measurement": "logEC50 (cAMP)", "setting": "WT GIPR; 100 ng receptor DNA", "result": -9.6}, {"measurement": "logEC50 (cAMP)", "setting": "WT GIPR; 250 ng receptor DNA", "result": -10.7}, {"measurement": "logEC50 (cAMP)", "setting": "WT GIPR; 500 ng receptor DNA", "result": -11.5}, {"measurement": "logEC50 (cAMP)", "setting": "WT GIPR; 100 µg receptor DNA", "result": -11.5}, {"measurement": "cAMP (Emax)", "setting": "GIPR E418K; [3]", "result": "80 % of WT GIPR activity"}, {"measurement": "logEC50 (cAMP)", "setting": "GIPR E418K; [4]", "result": -11.4}, {"measurement": "logEC50 (Arrestin)", "setting": "GIPR K397N; Hill slope 1.0", "result": -8.9}, {"measurement": "Arrestin (Emax)", "setting": "GIPR K397N; normalized to WT GIPR", "result": 38}, {"measurement": "Mean of ΔBRET", "setting": "GIPR R190Q [1]", "result": 0.0153}, {"measurement": "cAMP (Emax)", "setting": "GIPR E288G; HEK293, GIP(1–42) 1 pM–100 nM, 30 min 37 °C, mean of n = 7", "result": "83 % of WT GIPR activity"}, {"measurement": "logEC50 (cAMP)", "setting": "GIPR E288G; HEK293, Hill slope 1.0, mean of n = 7", "result": -8.5}, {"measurement": "logEC50 (Arrestin)", "setting": "GIPR R190Q [2]; Hill slope 1.0", "result": -8.9}, {"measurement": "Arrestin (Emax)", "setting": "GIPR R190Q [2]; normalized to WT GIPR", "result": 11}]}
